For assay [1], the target named is T1, KDAC8 (Homo sapiens, UniProt Q9BY41).
T1 sequence (Q9BY41 1-377): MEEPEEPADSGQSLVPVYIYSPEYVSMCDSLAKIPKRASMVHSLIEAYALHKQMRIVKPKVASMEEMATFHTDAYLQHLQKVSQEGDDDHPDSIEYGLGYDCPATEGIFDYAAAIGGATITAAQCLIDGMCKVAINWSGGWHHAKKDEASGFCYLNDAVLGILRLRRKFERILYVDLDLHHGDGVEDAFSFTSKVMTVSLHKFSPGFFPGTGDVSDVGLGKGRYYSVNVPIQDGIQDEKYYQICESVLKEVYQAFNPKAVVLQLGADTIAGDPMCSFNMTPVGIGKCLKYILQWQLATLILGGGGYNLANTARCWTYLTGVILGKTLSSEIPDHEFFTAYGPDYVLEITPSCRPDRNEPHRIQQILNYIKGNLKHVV
Description: KDAC inhibition assay, KDAC8. Conditions: mean of three technical replicates. It counts as biochemical. As for the experimental part:
KDAC1, 2, 3 6, and 8 inhibition assays were performed as described previously.[52] Briefly, the relevant human recombinant KDAC was diluted in an assay buffer with the following composition: 150 mM NaCl, 25 mM Tris–HCl (pH 8.0), 2.7 mM KCl, and 1 mM MgCl2; BSA (0.1 mg/mL) was also added in the case of KDAC1. Forty microliters of this solution were added to 10 μL of each inhibitor ([…]) and 50 μL of KDAC Assay substrate (Boc-Lys-(Ac)-AMC, 7–100 μM final concentration, depending on the KDAC isoform), and the resulting solution was mixed. […]. After thorough mixing of the resulting solution, the plate was covered and incubated at 37 °C for 25 min and the fluorescence (λemission = 460 nm; λexcitation = 390 nm) was measured on a EnSight Multimode Plate Reader (Perkin Elmer). The shown values are average of three technical replicates ± SD.

For assay [2], the target named is T2, KAT8 (Homo sapiens, UniProt Q9H7Z6).
T2 construct: using the previously purified KAT8 (173–458, 5 nM); 6xHis tag with TEV protease cleavage site (N, cleaved yes); made in house; host or cells: E. coli BL21(DE3)
T2 sequence (Q9H7Z6 173-458): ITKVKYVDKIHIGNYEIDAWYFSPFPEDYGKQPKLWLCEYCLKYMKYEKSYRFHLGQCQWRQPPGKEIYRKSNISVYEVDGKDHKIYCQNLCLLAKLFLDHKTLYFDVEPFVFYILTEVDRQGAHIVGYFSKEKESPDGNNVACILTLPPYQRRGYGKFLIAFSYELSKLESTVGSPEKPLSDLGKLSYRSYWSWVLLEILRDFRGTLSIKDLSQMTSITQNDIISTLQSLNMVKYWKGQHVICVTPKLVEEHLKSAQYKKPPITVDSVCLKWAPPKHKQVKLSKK
Description: Radioactive KAT8 inhibition assay. It is filed as biochemical. Conditions: enzyme 5 nM; 2-fold serial dilution from 200 μM; NI = no inhibition at 200 μM; mean ± SD of three independent experiments. As for the experimental part:
KAT8 inhibition assays were performed using the previously purified KAT8 (173–458, 5 nM), radio-isotope-labeled [^3H]Acetyl-CoA (Perkin Elmer, 3 μM) as the acetyl donor, and biotinylated H4 peptide (Sigma-Aldrich, 2.5 μM) as a substrate in a 100 mM NaCl, 40 mM Tris·HCl (pH 7.5), and 1 mM DTT assay buffer. Purified KAT8 was incubated with the relevant inhibitor (1% DMSO final) in a 2-fold serial dilution starting at 200 μM for 20 min at rt. Then, [^3H]Ac-CoA and biotinylated peptide were added to a total assay volume of 50 μL and the reaction mixture was incubated at rt for 4 h. The reaction was stopped, and the mixture was transferred to a 96-well streptavidin scintillant coated FlashPlate (Perkin Elmer) and incubated for 60 min at rt. The FlashPlate was washed with 0.1% Tween-20, and the liquid scintillation counting (MicroBeta Microplate Counter, Perkin Elmer) was employed to measure the radioactive signal. Experiments were performed in biological triplicates. Signal reduction compared to control was plotted (as inhibition percentage) as a function of compound concentration and fitted by nonlinear regression (GraphPad Prism 8.0) finally yielding the IC50 values.

Each structure is given as a SMILES string.

Broadly, the % Inhibition is the relative decrease from the control value, in per cent. The low end stands for a response near the control, the high end for a response far below the control. Take `O=C(CCCCCCC(=O)Nc1ccccc1)NO` [SAHA, reference compound]: in assay [1] (50 µM), the “% Inhibition at 50 µM KDAC8” value stood at 98.9%. The “% Inhibition at 100 µM KDAC8” value in assay [1] (100 µM) is 99.6%.
One may read the IC50 as the concentration that gives 50% inhibition. `CCCCCCCCCCCCCCCc1cccc(O)c1C(=O)O` [I (AA), anacardic acid, reference compound]: the IC50 in assay [2] was 30.2 ± 2.1 µM.

These data come from PMC10226132, “First-in-Class Selective Inhibitors of the Lysine Acetyltransferase KAT8” (Journal of Medicinal Chemistry, 2023).
